Measured values published in patent publication US10351547B2, “Somatostatin modulators and uses thereof” (priority 2016, dated 2019).

Protein sequences, listed by entry. Tags and fused reporters are not part of them.
UniProt P30874, whole entry: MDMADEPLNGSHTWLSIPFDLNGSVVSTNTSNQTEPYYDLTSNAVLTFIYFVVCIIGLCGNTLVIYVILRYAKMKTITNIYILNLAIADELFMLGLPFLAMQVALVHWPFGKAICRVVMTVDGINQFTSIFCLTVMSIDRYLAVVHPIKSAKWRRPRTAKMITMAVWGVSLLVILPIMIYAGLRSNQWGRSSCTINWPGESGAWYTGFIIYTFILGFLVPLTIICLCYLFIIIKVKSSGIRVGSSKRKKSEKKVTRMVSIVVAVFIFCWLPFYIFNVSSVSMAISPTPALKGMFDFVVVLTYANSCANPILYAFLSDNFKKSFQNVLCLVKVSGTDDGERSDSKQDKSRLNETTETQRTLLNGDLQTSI

Molecular target: human SSTR2 (Homo sapiens (Human), UniProt P30874)
Assay: Human SSTR2 intracellular cAMP functional assay for agonists (HTRF)
Assay type: cell-based
Details: read-out: EC50 (inhibition of cAMP activities via human SST2R); CHO-K1 cells stably expressing human SSTR2; NKH477-stimulated cAMP

**Q.** How did the EC50 turn out when Cn1ncc(-c2ccc3ncc(-c4cc(F)cc(F)c4)c(N4CC[C@H]5NCCO[C@@H]5C4)c3c2)c1N (relative stereo) was run?
**A.** < 10 nM
